{
  "source": "paper PMC5360176",
  "about": "(Journal of clinical psychopharmacology, 2016)",
  "key": {"[1]": {"conditions": "oxycodone 30 mg, Day 5 vs Day 4, p>0.05"}, "[2]": {"conditions": "aspirin at very high doses (3.5–5g /day); cited from earlier work"}},
  "data": [
    {"smiles": "CC(=O)Nc1nnc(S(N)(=O)=O)s1", "note": "[ACZ, Acetazolamide]", "values": [
      {"measurement": "Effect of co-administered oxycodone on ACZ plasma PK parameters", "setting": "[1]", "value": "did not affect the plasma PK parameters"},
      {"measurement": "Reduction of clearance of therapeutic doses of ACZ by aspirin", "setting": "[2]", "value": "two fold"}
    ]}
  ]
}
